High-throughput results: PubChem BioAssay, National Center for Advancing Translational Sciences (NCATS)
Nrf2 inh = Nrf2 pathway inhibition; Potency, µM (titrated, usually from 46 µM), for the others: at the highest dose activity change, negative = inhibition, hits mostly inhibitors; AID 504444; A549 ARE-Fluc reporter, luciferase luminescence, 18-24 h; 2.1% of 360,000 active; also: potency is read from the fitted curve at half-maximal effect; % is scaled to controls: 0 for no effect and ±100 for the full control effect; nearly all actives have a fitted effect of over 60% in size
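Quantitative HTS in A549 cells stably bearing an antioxidant response element-firefly luciferase construct. Inhibition of Nrf2-driven transcription was scored by luminescence after 18-24 h of compound exposure at 37 °C.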
ClpP mod = qHTS Assay for Activators of ClpP. 1.9% of 340,000 active. purified B. subtilis ClpP, FRET peptide cleavage, 20 min. Potency, µM (series often up to 57.5 µM), without a hit: at the top dose activity change, negative = active. ATP-dependent Clp protease proteolytic subunit (Bacillus subtilis (strain 168)), P80244; active = well fitted falling curve with a large enough effect; inconclusive = small, poorly fitted or top-dose-only effect; inactive = no such curve, though single readings can be large or run the other way; also: potency is read from the fitted curve at half-maximal effect; the source files actives as falling curves though it sought activators and does not explain the sign; nearly all actives have a fitted effect of over 65% in size
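FRET quenching reversal measured ClpP activation: 10 microg/mL B. subtilis ClpP at pH 8 with the FRET-FV decapeptide, read at 430 nm after 320 nm excitation. The 20-min minus 0-min signal was scaled between DMSO/no-enzyme wells and ADEP (5.8 microM final).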
TCR act = activates T cell receptor signaling | primary human leukocytes, anti-CD3, IL-2 HTRF, 48 h | Potency, µM (highest dose often 9.22 µM), for inactives: top-dose activation of IL-2 secretion, usual class: activators | 330,000 tested, under 10 active | AID 504894; also: % of control where 0% means no effect
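Using a-CD3 beads without co-stimulation, primary human leukocytes were exposed to compounds for 48 hr. An HTRF IL-2 kit measured the cytokine, with europium-to-d2 energy transfer producing emission at 665nm upon 320nm excitation.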
miR-21 reporter = raises the signal of a miR-21 reporter; HeLa miR-21 FLuc reporter, luciferase, 48 h; Potency, µM (highest dose often 38.3 µM), inactives show at the highest dose reporter change, positive = more light; 340,000 tested, under 10 active; active = well fitted rising curve with a large enough effect; inconclusive = small, poorly fitted or top-dose-only effect; inactive = no such curve, though single readings can be large or run the other way;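 note: % of control where 0% means no effect; miR-21 action dims this reporter so a rising signal means less miR-21 action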
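HeLa cells stably expressing CMV-driven firefly luciferase with a downstream miR-21 binding sequence, endogenously expressing miR-21, were treated with titrations (up to about 40uM final) for 48 hours at 37 degree Celsius. Luciferase luminescence was read after lysis.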
Nrf2 activator = activators of Nrf2 (ARE) signaling; AREc32 ARE-luciferase reporter (MCF7-derived line), luminescence, 24 h; Potency, µM (series often up to 46.1 µM), without a hit: at the top dose activation, usual class: activators; 0.31% of 410,000 active; AID 624171; also: potency is read from the fitted curve at half-maximal effect; % of control where 0% means no effect; nearly all actives have a fitted effect of over 65% in size
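Nrf2 activation is followed as ARE-luciferase induction in the AREc32 line after one day of compound treatment; luminescence is read with Steady-Glo.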
A549 viability = kills or reduces viability of A549 cells in Nrf2 counter-screen; Potency, µM (doses to about 46 µM), for the others: at the top dose activity change, negative = cytotoxicity, hits mostly inhibitors; 0.16% of 390,000 active; A549 ARE-Fluc cells, CellTiter-Fluor viability, 18-24 h; also: potency is read from the fitted curve at half-maximal effect; % is scaled to controls: 0 for no effect and ±100 for the full control effect
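Cytotoxicity counterscreen: CellTiter-Fluor fluorescence was measured in A549 ARE_Fluc cells after 18-24 h of compound exposure in a concentration series. The subsequent BugLite luminescent read reports ARE-luciferase activity.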
* marks the source's active call; other numbers are inactive results; [ ] = another dose, or the depositor's remark. An excerpt weighted towards active compounds, which were near 3.7% of everything screened. Unless noted, calls follow the shape of the dose curve; as a rule, active = well fitted curve in the direction sought with a large enough effect; inconclusive = small, poorly fitted or top-dose-only effect, or another doubt; inactive = no such curve, though single readings can be large; an effect the other way counts as inactive or inconclusive.

What do the screens show for `c1ccc(-c2oc3ncnc(NCCN4CCOCC4)c3c2-c2ccccc2)cc1`?
Nrf2 inh: inconclusive; ClpP mod: 16µM*; TCR act: 0%; miR-21 reporter: 13%; Nrf2 activator: 1%; A549 viability: -10%

How did COc1cccc(/C=N/NC(=O)c2cccc3ccccc23)c1 do in these assays?
Nrf2 inh: -8%; ClpP mod: -6%; TCR act: 5%; miR-21 reporter: 0%; Nrf2 activator: 2%; A549 viability: 10%

Results for COc1ccc(OC)c(/C=N/NC(=O)CNC(=O)c2cccc3ccccc23)c1 ?
Nrf2 inh: 2%; ClpP mod: 18µM*; TCR act: 6%; miR-21 reporter: 0%; Nrf2 activator: -1%; A549 viability: -3%

What do the screens show for `COc1ccc(OC)c(/C=N/NC(=O)c2ccncc2)c1`?
Nrf2 inh: -8%; ClpP mod: -1%; miR-21 reporter: 1%; Nrf2 activator: 3%; A549 viability: -7%

What do the screens show for `COc1ccc(C(=O)N/N=C/c2cc3ccccc3[nH]c2=O)cc1`?
Nrf2 inh: -8%; ClpP mod: 28µM*; TCR act: 3%; miR-21 reporter: -1%; Nrf2 activator: 0%; A549 viability: -2%

Results for COc1ccc(OC)c(/C=N\NC(=O)c2ccc(-c3ccccc3)cc2)c1 ?
Nrf2 inh: 3%; ClpP mod: 28µM*; TCR act: 2%; miR-21 reporter: -1%; Nrf2 activator: 4%; A549 viability: 7%

What do the screens show for `COc1ccc2cc(CCNC(=O)c3cc4ccccc4o3)c(=O)[nH]c2c1`?
Nrf2 inh: 10µM*; ClpP mod: -17%; TCR act: -3%; miR-21 reporter: 10%; Nrf2 activator: 0%; A549 viability: -11%

How did Cc1ccc2cc(CCNC(=O)c3cc4ccccc4o3)c(=O)[nH]c2c1C do in these assays?
Nrf2 inh: -22%; ClpP mod: -11%; TCR act: 4%; miR-21 reporter: 6%; Nrf2 activator: -1%; A549 viability: 0%

How did C[C@@H](NC(=O)[C@@H]1CCCN1C(=O)OC(C)(C)C)c1ccccc1 do in these assays?
ClpP mod: -2%; Nrf2 activator: -1%

What do the screens show for `COc1cc2c(cc1OC)C1O[C@](c3ccsc3)(C2)Oc2cc(-c3ccccc3)oc(=O)c21`?
miR-21 reporter: -17%[7.66 µM]

Results for CCCn1c(=O)c2c(C(=O)OCC)cc(-c3ccco3)nc2n(CCC)c1=O ?
Nrf2 inh: -19%; ClpP mod: 13µM*; TCR act: 0%; miR-21 reporter: 0%; Nrf2 activator: 15%; A549 viability: -3%

How did CC(C)CCNC(=O)c1cnn2c(C(F)(F)F)cc(-c3ccco3)nc12 do in these assays?
ClpP mod: -12%; TCR act: 0%; miR-21 reporter: -7%; Nrf2 activator: 3%; A549 viability: 10%

How did CCOC(=O)c1cnn2c(C(F)(F)F)cc(-c3ccco3)nc12 do in these assays?
ClpP mod: 32µM*; TCR act: -2%; miR-21 reporter: -2%; Nrf2 activator: inconclusive; A549 viability: 6%

Results for CCOC(=O)c1cc(-c2ccco2)nc2c1c(C)nn2-c1ccccc1 ?
Nrf2 inh: -1%; ClpP mod: -5%; TCR act: 1%; miR-21 reporter: 3%; Nrf2 activator: 17%; A549 viability: -5%

How did CCC(c1ccccc1)c1noc(CCN(CC)CC)n1 (configuration not stated) do in these assays?
ClpP mod: -2%; Nrf2 activator: 6%

Results for CC(=O)c1c(O)c(C)c(-c2ccccc2)n(-c2ccccc2)c1=O ?
ClpP mod: 22µM*; TCR act: 4%; miR-21 reporter: -1%; Nrf2 activator: -1%; A549 viability: -1%

Random excerpt: 2 entries already listed
How did COc1cccc(/C=N/NC(=O)c2cccc3ccccc23)c1 do in these assays?
Nrf2 inh: -8%; ClpP mod: -6%; TCR act: 5%; miR-21 reporter: 0%; Nrf2 activator: 2%; A549 viability: 10%

Results for CCCn1c(=O)c2c(C(=O)OCC)cc(-c3ccco3)nc2n(CCC)c1=O ?
Nrf2 inh: -19%; ClpP mod: 13µM*; TCR act: 0%; miR-21 reporter: 0%; Nrf2 activator: 15%; A549 viability: -3%
